In US20230212116A1, “SARS-COV-2 MAIN PROTEASE INHIBITORS” (TEXAS A&M UNIVERSITY SYSTEM, priority 2020, published 2023) one finds IC50 data, which are given here for 7 compounds.

Molecules are shown by their SMILES. Where two headings read alike, the source gives them in different places.

Experiment [1] deals with T1, SARS-CoV-2 M^Pro (Severe acute respiratory syndrome coronavirus 2, UniProt P0DTD1). Put plainly: biochemical.
For experiment [2], the target named is T1, SARS-CoV-2 M^Pro. To be noted: read-out: Enzymatic IC50.

The IC50 is the concentration at which inhibition is half-maximal. With `CC(C)(C)C[C@H](NC(=O)[C@@H](NC(=O)NC(C)(C)C)C(C)(C)C)C(=O)N[C@H](C=O)C[C@@H]1CCNC1=O` [MPI55, (S)-2-((S)-2-(3-(tert-butyl)ureido)-3,3-dimethylbutanamido)-4,4-dimethyl-N-((S)-1-oxo-3-((S)-2-oxopyrrolidin-3-yl)propan-2-yl)pentanamide], on SARS-CoV-2 M^Pro [1], the IC50 came out at 56.3 ± 3.8 nM. Same read-out and setting: the same measure for `CC(C)(C)NC(=O)N[C@H](C(=O)N1CC2(CC2)C[C@H]1C(=O)N[C@H](C=O)C[C@@H]1CCNC1=O)C(C)(C)C` [MPI56, (S)-5-((S)-2-(3-(tert-butyl)ureido)-3,3-dimethylbutanoyl)-N-((S)-1-oxo-3-((S)-2-oxopyrrolidin-3-yl)propan-2-yl)-5-azaspiro[2.4]heptane-6-carboxamide]: 23.4 ± 0.2 nM. On to `CCNC(=O)C(=O)[C@H](C[C@@H]1CCNC1=O)NC(=O)[C@@H]1[C@@H]2[C@H](CN1C(=O)[C@@H](NC(=O)NC(C)(C)C)C(C)(C)C)C2(C)C` [MPI58, (1R,2S,5S)-3-((S)-2-(3-(tert-butyl)ureido)-3,3-dimethylbutanoyl)-N-((S)-4-(ethylamino)-3,4-dioxo-1-((S)-2-oxopyrrolidin-3-yl)butan-2-yl)-6,6-dimethyl-3-azabicyclo[3.1.0]hexane-2-carboxamide], for which the IC50 at SARS-CoV-2 M^Pro [2] amounted to 75 ± 9 nM.

Regarding `C[C@@H](OC(C)(C)C)[C@H](NC(=O)OCc1ccccc1)C(=O)N1C[C@H]2[C@@H]([C@H]1C(=O)N[C@H](C=O)C[C@@H]1CCNC1=O)C2(C)C` [MPI67, benzyl ((2S,3R)-3-(tert-butoxy)-1-((1R,2S,5S)-6,6-dimethyl-2-(((S)-1-oxo-3-((S)-2-oxopyrrolidin-3-yl)propan-2-yl)carbamoyl)-3-azabicyclo[3.1.0]hexan-3-yl)-1-oxobutan-2-yl)carbamate], the IC50 at SARS-CoV-2 M^Pro [2] was 120 ± 14 nM. Still for that read-out and setting: to `CC(C)(C)[C@H](NC(=O)OCc1ccccc1)C(=O)N1C[C@H]2[C@@H]([C@H]1C(=O)N[C@H](C=O)C[C@@H]1CCNC1=O)C2(C)C` [MPI73, benzyl ((S)-1-((1R,2S,5S)-6,6-dimethyl-2-(((S)-1-oxo-3-((S)-2-oxopyrrolidin-3-yl)propan-2-yl)carbamoyl)-3-azabicyclo[3.1.0]hexan-3-yl)-3,3-dimethyl-1-oxobutan-2-yl)carbamate] belongs 59 ± 7.2 nM; to `C[C@@H](OC(C)(C)C)[C@H](NC(=O)NC(C)(C)C)C(=O)N[C@@H](CC1CCCCC1)C(=O)N[C@H](C=O)C[C@@H]1CCNC1=O` [MPI74, (2S,3R)-3-(tert-butoxy)-2-(3-(tert-butyl)ureido)-N-((S)-3-cyclohexyl-1-oxo-1-(((S)-1-oxo-3-((S)-2-oxopyrrolidin-3-yl)propan-2-yl)amino)propan-2-yl)butanamide], 97 ± 10.6 nM. `CC(C)(C)CC(=O)N[C@H](C(=O)N1C[C@H]2[C@@H]([C@H]1C(=O)N[C@@H](C[C@@H]1CCNC1=O)C(=O)C(N)=O)C2(C)C)C(C)(C)C` [MPI85, (1R,2S,5S)-N-((S)-4-amino-3,4-dioxo-1-((S)-2-oxopyrrolidin-3-yl)butan-2-yl)-3-((S)-2-(3,3-dimethylbutanamido)-3,3-dimethylbutanoyl)-6,6-dimethyl-3-azabicyclo[3.1.0]hexane-2-carboxamide] came in with an IC50 against SARS-CoV-2 M^Pro [1] of 147 ± 19 nM.
